Patent US11191812B2 (ADOCIA, priority 2017, dated 2021)

Columns and labels:
[1] = Thioflavin T (ThT) fluorescence fibrillation test, latency time (lag time); type: physicochemical; details: alone
[2] = Physical stability at 37° C. in static conditions, visual inspection (EP 2.9.20); details: 1 mg/mL

- Stability of glucagon solution at acidic pH under ThT measurement conditions [1]: stable for only a few minutes
- Physical stability of solution of glucagon at acidic pH [2]: 2 days
Structure (SMILES): CSCC[C@H](NC(=O)[C@H](CC(C)C)NC(=O)[C@H](Cc1c[nH]c2ccccc12)NC(=O)[C@H](CCC(N)=O)NC(=O)[C@@H](NC(=O)[C@H](Cc1ccccc1)NC(=O)[C@H](CC(=O)O)NC(=O)[C@H](CCC(N)=O)NC(=O)[C@H](C)NC(=O)[C@H](CCCN=C(N)N)NC(=O)[C@H](CCCN=C(N)N)NC(=O)[C@H](CO)NC(=O)[C@H](CC(=O)O)NC(=O)[C@H](CC(C)C)NC(=O)[C@H](Cc1ccc(O)cc1)NC(=O)[C@H](CCCCN)NC(=O)[C@H](CO)NC(=O)[C@H](Cc1ccc(O)cc1)NC(=O)[C@H](CC(=O)O)NC(=O)[C@H](CO)NC(=O)[C@@H](NC(=O)[C@H](Cc1ccccc1)NC(=O)[C@@H](NC(=O)CNC(=O)[C@H](CCC(N)=O)NC(=O)[C@H](CO)NC(=O)[C@@H](N)Cc1c[nH]cn1)[C@@H](C)O)[C@@H](C)O)C(C)C)C(=O)N[C@@H](CC(N)=O)C(=O)N[C@H](C(=O)O)[C@@H](C)O [glucagon]
